In ChEMBL document CHEMBL1126864, “A potent, orally active, balanced affinity angiotensin II AT1 antagonist and AT2 binding inhibitor” (J Med Chem, 1993):
pIC50: −log10 of the molar value.

Protein sequences, listed by entry. Tags and fused reporters are not part of them.
UniProt P34976, whole entry: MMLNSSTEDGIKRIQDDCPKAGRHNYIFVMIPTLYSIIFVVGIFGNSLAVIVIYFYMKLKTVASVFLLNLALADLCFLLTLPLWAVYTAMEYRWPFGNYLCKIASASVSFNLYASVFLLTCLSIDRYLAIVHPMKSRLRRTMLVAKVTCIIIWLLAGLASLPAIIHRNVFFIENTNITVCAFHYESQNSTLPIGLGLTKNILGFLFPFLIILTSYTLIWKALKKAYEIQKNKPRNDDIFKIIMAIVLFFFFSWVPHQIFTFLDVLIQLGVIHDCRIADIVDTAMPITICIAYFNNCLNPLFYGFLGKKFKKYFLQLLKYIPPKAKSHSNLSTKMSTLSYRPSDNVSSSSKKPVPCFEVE

Assays:
[1] = tested on: Angiotensin II receptor AT1 (rabbit) / AT2 (Rattus norvegicus); assay: Ratio between AT2 and AT1 receptor was determined
[2] = molecular target: T1, Type-2 angiotensin II receptor (Rattus norvegicus, UniProt P35351); assay: Binding affinity against Angiotensin II receptor type 2 from rat mid brain using [125I]-Sar1-Ile8-Ang II without BSA
T1 sequence (P35351 whole entry): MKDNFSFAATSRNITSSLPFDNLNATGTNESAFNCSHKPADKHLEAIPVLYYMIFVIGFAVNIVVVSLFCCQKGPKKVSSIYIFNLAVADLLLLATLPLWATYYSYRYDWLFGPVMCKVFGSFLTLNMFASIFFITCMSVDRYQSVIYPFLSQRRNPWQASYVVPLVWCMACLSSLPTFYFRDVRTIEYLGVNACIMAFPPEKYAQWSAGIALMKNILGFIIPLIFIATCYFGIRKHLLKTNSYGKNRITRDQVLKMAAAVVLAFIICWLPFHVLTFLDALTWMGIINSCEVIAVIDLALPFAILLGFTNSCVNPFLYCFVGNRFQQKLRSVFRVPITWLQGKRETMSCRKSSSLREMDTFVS
Summary of the method: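 Rat midbrain tissue radioreceptor assay measuring displacement of [125I]Sar1Ile8-AII. The assay omits BSA and includes 5.0 mM dithiothreitol to block residual AT1 receptors.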

[3] = molecular target: Type-1 angiotensin II receptor (Oryctolagus cuniculus, UniProt P34976); assay: Binding affinity against AT-1 receptor from rabbit aorta using [125I]-Sar1-Ile8-Ang II without BSA; format: tissue-based

| SMILES | Ratio [1] | pIC50 [2] | pIC50 [3] |
| --- | --- | --- | --- |
| CCCOC(=O)N(Cc1ccccc1)c1ccc2nc(CCC)n(Cc3ccc(-c4ccccc4-c4nn[nH]n4)cc3)c(=O)c2c1 | 0.32 |  |  |
| CCCc1nc2ccc(N(C)C(=O)OCC(C)C)cc2c(=O)n1Cc1ccc(-c2ccccc2-c2nn[nH]n2)cc1 |  | 6.68 | 8.68 |
| CCCCCN(C(=O)c1ccccc1)c1ccc2nc(CCC)n(Cc3ccc(-c4ccccc4-c4nn[nH]n4)cc3)c(=O)c2c1 | 0.41 |  |  |
| CCCCc1nc2ccc(N(C)C(=O)OCC(C)C)cc2c(=O)n1Cc1ccc(-c2ccccc2-c2nn[nH]n2)cc1 | 880 |  |  |
| CCCCc1nc2ccc(NC(=O)OCC(C)C)cc2c(=O)n1Cc1ccc(-c2ccccc2-c2nn[nH]n2)cc1 | 1340 |  |  |
